Apparent affinities of Ab-91 variants for a coronavirus HR2 peptide

The measurements come from Engelhart et al. 2022 (doi:10.1038/s41597-022-01779-4) through the FLAb antibody collection.

Target peptide (SARS-CoV-2 spike, HR2 region): PDVDLGDISGINAS

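In library AAYL51, one, two or three CDR residues were substituted; doubles and triples were drawn at random. Affinity was read by AlphaSeq, a pooled yeast mating assay with surface-displayed partners. Mating (16 h, 30 °C) was followed by selection of diploids and sequencing of their barcodes. Read counts were normalised to the haploid input and turned into Kd by a linear fit to BCL2-family pairs of known affinity, for each replicate. Each pool was mated in three replicate cultures.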

Ab-91 is the parent antibody, in scFv form: VL, then the linker GGGGSGGGGSGGGGS, then VH. The light chain is unchanged in all variants.
VL: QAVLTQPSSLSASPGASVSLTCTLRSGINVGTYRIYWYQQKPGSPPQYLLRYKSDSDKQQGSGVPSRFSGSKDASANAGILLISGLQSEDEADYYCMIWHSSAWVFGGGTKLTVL
VH: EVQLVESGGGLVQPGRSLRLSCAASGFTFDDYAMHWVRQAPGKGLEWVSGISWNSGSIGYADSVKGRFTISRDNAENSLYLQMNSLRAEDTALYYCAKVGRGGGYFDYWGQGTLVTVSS

Sequences are complete VH domains.
The Kd shown is the geometric mean over detected replicates; a lower Kd is a better binder.
A pair that was not seen in any replicate is written "not detected"; this usually means weak binding, but a binder can also be missed.
Entries are sorted by rising average, undetected variants last.

VH,Kd (apparent),replicates with signal
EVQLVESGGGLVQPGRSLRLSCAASGFTFDDYAMHWVRQAPGKGLEWVSGISWNSGSRGYADSVKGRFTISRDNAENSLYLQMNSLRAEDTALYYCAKVGVGGGYFDDWGQGTLVTVSS,11 nM,3 of 3
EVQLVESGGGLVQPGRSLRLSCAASGFTFDDYAMHWVRQAPGKGLEWVSGISINSGSFGYADSVKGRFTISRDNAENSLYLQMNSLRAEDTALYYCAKVGRGGGYFDYWGQGTLVTVSS,160 nM,3 of 3
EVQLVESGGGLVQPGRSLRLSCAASGFTFDDYAMHWVRQAPGKGLEWVSGISWNSCSIGYTDSVKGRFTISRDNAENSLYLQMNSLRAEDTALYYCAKVGRGGGYFDYWGQGTLVTVSS,1.6 µM,3 of 3
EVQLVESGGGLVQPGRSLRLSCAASGFTFDDYHMHWVRQAPGKGLEWVSGISWNSGSIGYADSVKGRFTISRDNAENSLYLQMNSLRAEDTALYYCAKVGRGVGYFLYWGQGTLVTVSS,3.9 µM,1 of 3
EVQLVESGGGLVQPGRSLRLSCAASGFTFDDYSSHWVRQAPGKGLEWVSGISWNVGSIGYADSVKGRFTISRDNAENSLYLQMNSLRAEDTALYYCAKVGRGGGYFDYWGQGTLVTVSS,9.7 µM,1 of 3
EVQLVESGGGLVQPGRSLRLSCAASGFTFDDYAMHWVRQAPGKGLEWVSGISWNSGSIGYADSVKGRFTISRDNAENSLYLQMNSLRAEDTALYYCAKVGVGGQYFDSWGQGTLVTVSS,12 µM,1 of 3
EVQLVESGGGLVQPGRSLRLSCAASGWFFDDYAMHWVRQAPGKGLEWVSGISWNSGLIGYADSVKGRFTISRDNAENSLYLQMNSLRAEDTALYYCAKVGRGGGYFDYWGQGTLVTVSS,20 µM,1 of 3
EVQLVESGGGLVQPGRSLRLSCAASGFTFDDYAMHWVRQAPGKGLEWVSGISWPSGSIGYRDGVKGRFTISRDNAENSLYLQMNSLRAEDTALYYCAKVGRGGGYFDYWGQGTLVTVSS,26 µM,1 of 3
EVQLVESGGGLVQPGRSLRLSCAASGFTFDDYAMHWVRQAPGKGLEWVSGISWWSGSIGMADSVGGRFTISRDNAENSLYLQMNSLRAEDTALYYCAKVGRGGGYFDYWGQGTLVTVSS,29 µM,3 of 3
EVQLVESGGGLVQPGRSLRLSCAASGFTADDYAMHWVRQAPGKGLEWVSGISWNFGSIGYADSVKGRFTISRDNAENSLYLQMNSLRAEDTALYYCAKVGKGGGYFDYWGQGTLVTVSS,47 µM,1 of 3
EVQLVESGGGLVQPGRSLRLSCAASGFTFDDQAMHWVRQAPGKGLEWVSGESWNSGSTGYADSVKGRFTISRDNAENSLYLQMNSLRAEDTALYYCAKVGRGGGYFDYWGQGTLVTVSS,49 µM,3 of 3
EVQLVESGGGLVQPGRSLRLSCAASGFTFDDYAMHWVRQAPGKGLEWVSGISWNGGSIGYADSKKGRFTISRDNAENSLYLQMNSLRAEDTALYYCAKVGRGGGYFDYWGQGTLVTVSS,61 µM,2 of 3
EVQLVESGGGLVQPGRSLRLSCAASGDTFDDYAMHWVRQAPGKGLEWVSGISWNSCSIGYADSVKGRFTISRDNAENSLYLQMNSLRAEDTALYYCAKVGRGGGYFDYWGQGTLVTVSS,69 µM,3 of 3
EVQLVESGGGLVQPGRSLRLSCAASGFTFDDYAIHWVRQAPGKGLEWVSGNSWNSGSIGAADSVKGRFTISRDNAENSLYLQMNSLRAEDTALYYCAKVGRGGGYFDYWGQGTLVTVSS,140 µM,2 of 3
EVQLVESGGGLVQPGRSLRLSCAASVKTFDDYAMHWVRQAPGKGLEWVSGISWNSGSIGYADSVKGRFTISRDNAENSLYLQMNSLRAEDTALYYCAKVGRGGGYFPYWGQGTLVTVSS,140 µM,3 of 3
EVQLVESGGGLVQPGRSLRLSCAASGFTFDDYAMHWVRQAPGKGLEWVSGISWNSPSIYYADSVKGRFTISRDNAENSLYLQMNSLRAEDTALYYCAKVGRGGGEFDYWGQGTLVTVSS,190 µM,2 of 3
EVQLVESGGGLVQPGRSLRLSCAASGFTSDDYKMHWVRQAPGKGLEWVSGISWNSGSIGYADSVKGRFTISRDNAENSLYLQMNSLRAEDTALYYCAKNGRGGGYFDYWGQGTLVTVSS,330 µM,2 of 3
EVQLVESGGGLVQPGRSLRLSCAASGFTFDDYAMHWVRQAPGKGLEWVSGIGWNSGSIGYADSVKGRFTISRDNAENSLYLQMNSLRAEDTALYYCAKVGRGGGNFRYWGQGTLVTVSS,not detected,0 of 3
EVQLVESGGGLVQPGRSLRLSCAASGFTFDDYAMHWVRQAPGKGLEWVSGISWHSGSIAYADSVKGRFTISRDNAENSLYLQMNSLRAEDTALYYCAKVGRGGGYMDYWGQGTLVTVSS,not detected,0 of 3
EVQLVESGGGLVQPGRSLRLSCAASGFTYYDYAMHWVRQAPGKGLEWVSGISWNSGSIGYADSVKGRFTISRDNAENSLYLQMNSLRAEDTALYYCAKVGRGGGYFDGWGQGTLVTVSS,not detected,0 of 3
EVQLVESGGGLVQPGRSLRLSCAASGFTFDDYAKHWVRQAPGKGLEWVSGISWNSWSIGYADNVKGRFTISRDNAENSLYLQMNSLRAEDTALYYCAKVGRGGGYFDYWGQGTLVTVSS,not detected,0 of 3
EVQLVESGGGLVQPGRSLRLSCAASGFTFDDYAMHWVRQAPGKGLEWVSGISWNSGSIAYADSPKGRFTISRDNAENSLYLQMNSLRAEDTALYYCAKVFRGGGYFDYWGQGTLVTVSS,not detected,0 of 3

Top 2 of the variants detected in all replicates, tightest first:

{"VH": "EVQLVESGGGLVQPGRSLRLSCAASGFTFDDYAMHWVRQAPGKGLEWVSGISWNSGSRGYADSVKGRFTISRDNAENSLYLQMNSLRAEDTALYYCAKVGVGGGYFDDWGQGTLVTVSS", "Kd (apparent)": "11 nM", "replicates with signal": "3 of 3"}
{"VH": "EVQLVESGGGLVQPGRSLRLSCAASGFTFDDYAMHWVRQAPGKGLEWVSGISINSGSFGYADSVKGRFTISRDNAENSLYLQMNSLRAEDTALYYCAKVGRGGGYFDYWGQGTLVTVSS", "Kd (apparent)": "160 nM", "replicates with signal": "3 of 3"}

Background: pairings of library AAYL51 with three empty control strains gave a value in 21% of cases (median 34 µM, 5th percentile 1.8 µM). Values in that range, when seen in few replicates, are hard to tell from nonspecific mating.
In this assay the parent's reference entry averaged 72 nM; its copy inside this library read 7.5 nM.